Measured values from ChEMBL document CHEMBL5506047, “Impact of Combinatorial Histone Modifications on Acetyllysine Recognition by the ATAD2 and ATAD2B Bromodomains” (J Med Chem, 2024).
pKd: −log10 of the molar value.

Target: T1, ATPase family AAA domain-containing protein 2 (Homo sapiens, UniProt Q6PL18)
T1 sequence (Q6PL18 whole entry): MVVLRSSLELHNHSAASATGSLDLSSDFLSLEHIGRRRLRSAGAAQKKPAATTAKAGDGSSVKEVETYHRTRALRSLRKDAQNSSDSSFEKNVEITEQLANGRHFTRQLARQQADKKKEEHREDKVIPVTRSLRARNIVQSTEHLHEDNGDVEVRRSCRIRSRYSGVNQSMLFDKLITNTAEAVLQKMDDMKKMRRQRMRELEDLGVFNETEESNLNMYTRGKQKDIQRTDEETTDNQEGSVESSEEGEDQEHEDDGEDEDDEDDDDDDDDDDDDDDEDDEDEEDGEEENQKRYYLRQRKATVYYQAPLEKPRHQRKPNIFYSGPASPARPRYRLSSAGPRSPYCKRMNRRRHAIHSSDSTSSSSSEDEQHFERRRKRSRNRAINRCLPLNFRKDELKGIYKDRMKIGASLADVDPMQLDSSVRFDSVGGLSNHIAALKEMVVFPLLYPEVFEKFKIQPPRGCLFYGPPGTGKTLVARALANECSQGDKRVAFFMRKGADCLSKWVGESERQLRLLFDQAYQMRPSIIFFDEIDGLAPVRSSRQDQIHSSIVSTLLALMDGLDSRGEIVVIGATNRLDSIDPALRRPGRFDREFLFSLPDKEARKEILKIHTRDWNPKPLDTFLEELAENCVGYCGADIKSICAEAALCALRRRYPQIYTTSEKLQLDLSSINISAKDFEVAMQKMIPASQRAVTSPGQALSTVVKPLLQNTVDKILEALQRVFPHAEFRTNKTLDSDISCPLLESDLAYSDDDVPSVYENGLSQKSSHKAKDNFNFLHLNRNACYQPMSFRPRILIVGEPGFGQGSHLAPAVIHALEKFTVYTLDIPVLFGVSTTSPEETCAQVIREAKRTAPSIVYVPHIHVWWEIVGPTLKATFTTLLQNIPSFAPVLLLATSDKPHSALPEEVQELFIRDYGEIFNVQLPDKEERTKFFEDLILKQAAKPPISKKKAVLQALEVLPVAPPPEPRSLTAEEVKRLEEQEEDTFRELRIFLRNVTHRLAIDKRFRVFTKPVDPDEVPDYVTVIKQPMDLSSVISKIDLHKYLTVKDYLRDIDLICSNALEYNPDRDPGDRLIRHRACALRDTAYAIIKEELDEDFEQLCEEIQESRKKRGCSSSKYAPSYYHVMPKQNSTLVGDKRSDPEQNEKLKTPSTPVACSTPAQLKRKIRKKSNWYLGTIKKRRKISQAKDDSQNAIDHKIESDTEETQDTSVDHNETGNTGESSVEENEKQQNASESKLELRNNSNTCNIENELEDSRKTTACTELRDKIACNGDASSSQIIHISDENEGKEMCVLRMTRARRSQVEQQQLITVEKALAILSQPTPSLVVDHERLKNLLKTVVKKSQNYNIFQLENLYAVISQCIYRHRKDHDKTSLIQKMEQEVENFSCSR
Test: Binding affinity to human ATAD2 BRD assessed as dissociation constant by isothermal titration calorimetry

pKd: 3.80
Compound: CC(=O)NCCCC[C@H](NC(=O)CNC(=O)[C@H](CCCNC(=N)N)NC(=O)CNC(=O)[C@@H](N)CO)C(=O)N[C@H](C(=O)NCC(=O)NCC(=O)N[C@@H](CCCCN)C(=O)N[C@@H](C)C(=O)N[C@@H](CCCNC(=N)N)C(=O)N[C@@H](C)C(=O)N[C@@H](CCCCN)C(=O)N[C@@H](C)C(=O)N[C@@H](CCCCN)C(=O)N[C@@H](CO)C(=O)N[C@@H](CCCNC(=N)N)C(=O)O)[C@@H](C)O
